What was measured:
[1] = target: KAT6A Full length enzyme (Homo sapiens (Human), UniProt Q92794); test: KAT6A assay (SAMDI-MS acetylation of H3 1-21 peptide); format: biochemical; settings: Morrison equation fit; replicate number in parentheses
[2] = target: KAT7+JADE1+EAF6+ING5 4 protein complex (Homo sapiens (Human), UniProt O95251); test: KAT7 JADE1 assay (SAMDI-MS acetylation of H3 1-21 peptide); format: biochemical; settings: Morrison equation fit; replicate number in parentheses

Chains of the proteins cited; added tags and fusions are not shown. A line that says so, or that is headed by a name, gives the form on record, which may keep a tag or linker.
UniProt Q92794, other isoform, or with tags, fused parts or gaps: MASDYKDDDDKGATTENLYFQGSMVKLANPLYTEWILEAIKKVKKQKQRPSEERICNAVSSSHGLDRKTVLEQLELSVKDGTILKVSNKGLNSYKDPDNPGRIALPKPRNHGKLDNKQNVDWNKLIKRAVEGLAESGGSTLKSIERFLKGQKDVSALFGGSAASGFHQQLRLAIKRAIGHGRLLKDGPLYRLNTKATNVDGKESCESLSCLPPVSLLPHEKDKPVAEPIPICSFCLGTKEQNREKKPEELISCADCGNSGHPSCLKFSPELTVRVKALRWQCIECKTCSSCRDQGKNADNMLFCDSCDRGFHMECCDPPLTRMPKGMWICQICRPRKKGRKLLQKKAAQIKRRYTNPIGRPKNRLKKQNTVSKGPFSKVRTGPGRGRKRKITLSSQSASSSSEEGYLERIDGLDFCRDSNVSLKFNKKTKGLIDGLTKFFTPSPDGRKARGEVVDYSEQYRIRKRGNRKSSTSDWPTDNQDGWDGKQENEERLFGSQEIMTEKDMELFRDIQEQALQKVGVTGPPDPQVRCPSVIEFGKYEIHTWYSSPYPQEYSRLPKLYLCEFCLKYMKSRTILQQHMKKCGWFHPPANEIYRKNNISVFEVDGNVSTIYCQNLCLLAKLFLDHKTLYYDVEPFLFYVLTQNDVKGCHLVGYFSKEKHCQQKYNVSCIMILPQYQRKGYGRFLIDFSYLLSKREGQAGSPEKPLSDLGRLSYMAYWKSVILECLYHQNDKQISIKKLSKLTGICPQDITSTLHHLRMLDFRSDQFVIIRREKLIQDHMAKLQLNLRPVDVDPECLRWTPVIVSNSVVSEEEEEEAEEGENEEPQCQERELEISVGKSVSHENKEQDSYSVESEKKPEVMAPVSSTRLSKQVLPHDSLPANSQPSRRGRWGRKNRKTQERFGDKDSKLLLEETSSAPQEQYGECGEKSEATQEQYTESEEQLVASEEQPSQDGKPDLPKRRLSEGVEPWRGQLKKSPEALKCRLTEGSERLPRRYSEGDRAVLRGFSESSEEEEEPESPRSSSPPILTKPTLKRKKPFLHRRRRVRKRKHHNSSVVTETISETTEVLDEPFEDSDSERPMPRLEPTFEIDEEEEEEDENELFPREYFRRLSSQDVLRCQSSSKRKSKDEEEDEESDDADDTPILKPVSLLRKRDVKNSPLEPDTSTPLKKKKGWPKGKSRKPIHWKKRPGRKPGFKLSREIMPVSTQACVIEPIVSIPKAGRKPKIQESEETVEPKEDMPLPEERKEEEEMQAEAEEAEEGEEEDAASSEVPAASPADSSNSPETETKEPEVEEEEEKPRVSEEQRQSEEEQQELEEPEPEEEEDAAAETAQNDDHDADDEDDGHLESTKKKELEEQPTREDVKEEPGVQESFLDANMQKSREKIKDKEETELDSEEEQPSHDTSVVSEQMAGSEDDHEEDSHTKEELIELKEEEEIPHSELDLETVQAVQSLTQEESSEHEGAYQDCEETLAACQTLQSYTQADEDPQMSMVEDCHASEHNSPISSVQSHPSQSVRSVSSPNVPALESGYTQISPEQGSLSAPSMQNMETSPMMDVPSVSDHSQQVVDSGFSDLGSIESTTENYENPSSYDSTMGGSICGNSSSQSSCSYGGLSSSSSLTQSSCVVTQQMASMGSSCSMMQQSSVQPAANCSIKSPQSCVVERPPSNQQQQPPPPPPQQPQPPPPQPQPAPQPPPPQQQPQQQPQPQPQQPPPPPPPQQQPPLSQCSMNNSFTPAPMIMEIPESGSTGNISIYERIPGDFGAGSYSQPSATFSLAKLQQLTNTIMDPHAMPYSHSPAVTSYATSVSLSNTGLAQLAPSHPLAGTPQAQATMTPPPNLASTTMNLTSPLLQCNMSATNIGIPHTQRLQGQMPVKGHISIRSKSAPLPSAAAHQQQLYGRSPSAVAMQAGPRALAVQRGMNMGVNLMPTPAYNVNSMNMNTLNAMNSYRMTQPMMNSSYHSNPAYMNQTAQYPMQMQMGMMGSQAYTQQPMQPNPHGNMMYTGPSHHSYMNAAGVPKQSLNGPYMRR

Work on `COc1cc2c(NS(=O)(=O)c3c(OC)cc(C4CCN(C5COC5)CC4)cc3OC)noc2cc1Nc1cc(C2CC2)n[nH]1` [Example 164, N-{6-[(3-cyclopropyl-1H-pyrazol-5-yl)amino]-5-methoxy-1,2-benzoxazol-3-yl}-2,6-dimethoxy-4-[1-(oxetan-3-yl)piperidin-4-yl]benzene-1-sulfonamide] yielded a Ki [1] of 0.8 nM and a Ki [2] of 4.1 nM.
